Key:
[1] = molecular target: T1, Rluc8-H2A (histone H2A, eBRET2 biosensor component), P0C0S8; experiment: eBRET2; conditions: chain shown with the change; transfection into cGAS knockout HCT116 cells; parent: est. 1.0; read off a plot
[2] = molecular target: T1, Rluc8-H2A (histone H2A, eBRET2 …); experiment: eBRET2; conditions: chain shown with the change; transfection into cGAS knockout HCT116 cells; parent: est. 1.0; read off a plot; remark: listed apart in the source

Row | Binder | response (relative eBRET2 signal (510nm/395nm)) [1] | response (relative eBRET2 signal (510nm/395nm)) [2]
1 | GFP2-cGAS (cyclic GMP-AMP synthase, eBRET2 biosensor component), Q8N884 S37D (protein) MQPWHGKAMQRASEAGATAPKASARNARGAPMDPTEDPAAPEAALPKAGKFGPARKSGSRQKKSAPDTQERPPVRATGARAKKAPQRAQDTQPSDATSAPGAEGLEPPAAREPALSRAGSCRQRGARCSTKPRPPPGPWDVPSPGLPVSAPILVRRDAAPGASKLRAVLEKLKLSRDDISTAAGMVKGVVDHLLLRLKCDSAFRGVGLLNTGSYYEHVKISAPNEFDVMFKLEVPRIQLEEYSNTRAYYFVKFKRNPKENPLSQFLEGEILSASKMLSKFRKIIKEEINDIKDTDVIMKRKRGGSPAVTLLISEKISVDITLALESKSSWPASTQEGLRIQNWLSAKVRKQLRLKPFYLVPKHAKEGNGFQEETWRLSFSHIEKEILNNHGKSKTCCENKEEKCCRKDCLKLMKYLLEQLKERFKDKKHLDKFSSYHVKTAFFHVCTQNPQDSQWDRKDLGLCFDNCVTYFLQCLRTEKLENYFIPEFNLFSSNLIDKRSKEFLTKQIEYERNNEFPVFDEF | 1.1 | 1.1
2 | GFP2-cGAS (cyclic GMP-AMP synthase, eBRET2 biosensor component), Q8N884 S37A (protein) MQPWHGKAMQRASEAGATAPKASARNARGAPMDPTEAPAAPEAALPKAGKFGPARKSGSRQKKSAPDTQERPPVRATGARAKKAPQRAQDTQPSDATSAPGAEGLEPPAAREPALSRAGSCRQRGARCSTKPRPPPGPWDVPSPGLPVSAPILVRRDAAPGASKLRAVLEKLKLSRDDISTAAGMVKGVVDHLLLRLKCDSAFRGVGLLNTGSYYEHVKISAPNEFDVMFKLEVPRIQLEEYSNTRAYYFVKFKRNPKENPLSQFLEGEILSASKMLSKFRKIIKEEINDIKDTDVIMKRKRGGSPAVTLLISEKISVDITLALESKSSWPASTQEGLRIQNWLSAKVRKQLRLKPFYLVPKHAKEGNGFQEETWRLSFSHIEKEILNNHGKSKTCCENKEEKCCRKDCLKLMKYLLEQLKERFKDKKHLDKFSSYHVKTAFFHVCTQNPQDSQWDRKDLGLCFDNCVTYFLQCLRTEKLENYFIPEFNLFSSNLIDKRSKEFLTKQIEYERNNEFPVFDEF | 0.28 | 0.23
3 | GFP2-cGAS (cyclic GMP-AMP synthase, eBRET2 biosensor component), Q8N884 T447E (protein) MQPWHGKAMQRASEAGATAPKASARNARGAPMDPTESPAAPEAALPKAGKFGPARKSGSRQKKSAPDTQERPPVRATGARAKKAPQRAQDTQPSDATSAPGAEGLEPPAAREPALSRAGSCRQRGARCSTKPRPPPGPWDVPSPGLPVSAPILVRRDAAPGASKLRAVLEKLKLSRDDISTAAGMVKGVVDHLLLRLKCDSAFRGVGLLNTGSYYEHVKISAPNEFDVMFKLEVPRIQLEEYSNTRAYYFVKFKRNPKENPLSQFLEGEILSASKMLSKFRKIIKEEINDIKDTDVIMKRKRGGSPAVTLLISEKISVDITLALESKSSWPASTQEGLRIQNWLSAKVRKQLRLKPFYLVPKHAKEGNGFQEETWRLSFSHIEKEILNNHGKSKTCCENKEEKCCRKDCLKLMKYLLEQLKERFKDKKHLDKFSSYHVKTAFFHVCEQNPQDSQWDRKDLGLCFDNCVTYFLQCLRTEKLENYFIPEFNLFSSNLIDKRSKEFLTKQIEYERNNEFPVFDEF |  | 0.98
4 | GFP2-cGAS (cyclic GMP-AMP synthase, eBRET2 biosensor component), Q8N884 S317D (protein) MQPWHGKAMQRASEAGATAPKASARNARGAPMDPTESPAAPEAALPKAGKFGPARKSGSRQKKSAPDTQERPPVRATGARAKKAPQRAQDTQPSDATSAPGAEGLEPPAAREPALSRAGSCRQRGARCSTKPRPPPGPWDVPSPGLPVSAPILVRRDAAPGASKLRAVLEKLKLSRDDISTAAGMVKGVVDHLLLRLKCDSAFRGVGLLNTGSYYEHVKISAPNEFDVMFKLEVPRIQLEEYSNTRAYYFVKFKRNPKENPLSQFLEGEILSASKMLSKFRKIIKEEINDIKDTDVIMKRKRGGSPAVTLLISEKIDVDITLALESKSSWPASTQEGLRIQNWLSAKVRKQLRLKPFYLVPKHAKEGNGFQEETWRLSFSHIEKEILNNHGKSKTCCENKEEKCCRKDCLKLMKYLLEQLKERFKDKKHLDKFSSYHVKTAFFHVCTQNPQDSQWDRKDLGLCFDNCVTYFLQCLRTEKLENYFIPEFNLFSSNLIDKRSKEFLTKQIEYERNNEFPVFDEF |  | 1
5 | GFP2-cGAS (cyclic GMP-AMP synthase, eBRET2 biosensor component), Q8N884 S305D (protein) MQPWHGKAMQRASEAGATAPKASARNARGAPMDPTESPAAPEAALPKAGKFGPARKSGSRQKKSAPDTQERPPVRATGARAKKAPQRAQDTQPSDATSAPGAEGLEPPAAREPALSRAGSCRQRGARCSTKPRPPPGPWDVPSPGLPVSAPILVRRDAAPGASKLRAVLEKLKLSRDDISTAAGMVKGVVDHLLLRLKCDSAFRGVGLLNTGSYYEHVKISAPNEFDVMFKLEVPRIQLEEYSNTRAYYFVKFKRNPKENPLSQFLEGEILSASKMLSKFRKIIKEEINDIKDTDVIMKRKRGGDPAVTLLISEKISVDITLALESKSSWPASTQEGLRIQNWLSAKVRKQLRLKPFYLVPKHAKEGNGFQEETWRLSFSHIEKEILNNHGKSKTCCENKEEKCCRKDCLKLMKYLLEQLKERFKDKKHLDKFSSYHVKTAFFHVCTQNPQDSQWDRKDLGLCFDNCVTYFLQCLRTEKLENYFIPEFNLFSSNLIDKRSKEFLTKQIEYERNNEFPVFDEF | 0.28 | 
6 | GFP2-cGAS (cyclic GMP-AMP synthase, eBRET2 biosensor component), Q8N884 S213D (protein) MQPWHGKAMQRASEAGATAPKASARNARGAPMDPTESPAAPEAALPKAGKFGPARKSGSRQKKSAPDTQERPPVRATGARAKKAPQRAQDTQPSDATSAPGAEGLEPPAAREPALSRAGSCRQRGARCSTKPRPPPGPWDVPSPGLPVSAPILVRRDAAPGASKLRAVLEKLKLSRDDISTAAGMVKGVVDHLLLRLKCDSAFRGVGLLNTGDYYEHVKISAPNEFDVMFKLEVPRIQLEEYSNTRAYYFVKFKRNPKENPLSQFLEGEILSASKMLSKFRKIIKEEINDIKDTDVIMKRKRGGSPAVTLLISEKISVDITLALESKSSWPASTQEGLRIQNWLSAKVRKQLRLKPFYLVPKHAKEGNGFQEETWRLSFSHIEKEILNNHGKSKTCCENKEEKCCRKDCLKLMKYLLEQLKERFKDKKHLDKFSSYHVKTAFFHVCTQNPQDSQWDRKDLGLCFDNCVTYFLQCLRTEKLENYFIPEFNLFSSNLIDKRSKEFLTKQIEYERNNEFPVFDEF |  | 1.1
7 | GFP2-cGAS (cyclic GMP-AMP synthase, eBRET2 biosensor component), Q8N884 S221D (protein) MQPWHGKAMQRASEAGATAPKASARNARGAPMDPTESPAAPEAALPKAGKFGPARKSGSRQKKSAPDTQERPPVRATGARAKKAPQRAQDTQPSDATSAPGAEGLEPPAAREPALSRAGSCRQRGARCSTKPRPPPGPWDVPSPGLPVSAPILVRRDAAPGASKLRAVLEKLKLSRDDISTAAGMVKGVVDHLLLRLKCDSAFRGVGLLNTGSYYEHVKIDAPNEFDVMFKLEVPRIQLEEYSNTRAYYFVKFKRNPKENPLSQFLEGEILSASKMLSKFRKIIKEEINDIKDTDVIMKRKRGGSPAVTLLISEKISVDITLALESKSSWPASTQEGLRIQNWLSAKVRKQLRLKPFYLVPKHAKEGNGFQEETWRLSFSHIEKEILNNHGKSKTCCENKEEKCCRKDCLKLMKYLLEQLKERFKDKKHLDKFSSYHVKTAFFHVCTQNPQDSQWDRKDLGLCFDNCVTYFLQCLRTEKLENYFIPEFNLFSSNLIDKRSKEFLTKQIEYERNNEFPVFDEF |  | 1
8 | GFP2-cGAS (cyclic GMP-AMP synthase, eBRET2 biosensor component), Q8N884 S305A (protein) MQPWHGKAMQRASEAGATAPKASARNARGAPMDPTESPAAPEAALPKAGKFGPARKSGSRQKKSAPDTQERPPVRATGARAKKAPQRAQDTQPSDATSAPGAEGLEPPAAREPALSRAGSCRQRGARCSTKPRPPPGPWDVPSPGLPVSAPILVRRDAAPGASKLRAVLEKLKLSRDDISTAAGMVKGVVDHLLLRLKCDSAFRGVGLLNTGSYYEHVKISAPNEFDVMFKLEVPRIQLEEYSNTRAYYFVKFKRNPKENPLSQFLEGEILSASKMLSKFRKIIKEEINDIKDTDVIMKRKRGGAPAVTLLISEKISVDITLALESKSSWPASTQEGLRIQNWLSAKVRKQLRLKPFYLVPKHAKEGNGFQEETWRLSFSHIEKEILNNHGKSKTCCENKEEKCCRKDCLKLMKYLLEQLKERFKDKKHLDKFSSYHVKTAFFHVCTQNPQDSQWDRKDLGLCFDNCVTYFLQCLRTEKLENYFIPEFNLFSSNLIDKRSKEFLTKQIEYERNNEFPVFDEF | 0.25 | 

Source: publication PMC11392818
